Species on record: Homo sapiens
Experiment: Selectivity ratio of IC50 for NOD2 (unknown origin) to IC50 for NOD1 (unknown origin)

## Cc1ccc(S(=O)(=O)n2c(N)nc3ccccc32)cc1
  Ratio IC50: > 36

— ChEMBL document CHEMBL3352342, “Nucleotide-binding oligomerization domain (NOD) inhibitors: a rational approach toward inhibition of NOD signaling pathway” (J Med Chem, 2014)
